Results as given in patent US20180296537A1, “METHODS AND COMPOSITIONS FOR DIAGNOSING, TREATING, AND MONITORING TREATMENT OF SHANK3 DEFICIENCY ASSOCIATED DISORDERS” (Novartis AG, priority 2015, published 2018).

System: Akt
Assay: Western blot of Akt phosphorylation in rat primary cortical neurons (Shank3 knock down vs control)
Assay type: cell-based
Settings: pre-treatment with Akti
Source text: E18 primary rat cortical neurons were dissected, cultured and infected 6 days after plating (DIV6) with indicated lentiviruses at MOI 10, as previously described (Proenca et al., 2013). Lentiviruses were produced by calcium phosphate transfection of HEK293T cells with packaging plasmids (Life Technologies) and transfer plasmid in 10 cm dishes. Cells were transferred to fresh medium 6 hrs. post-transfection. Four days post-transfection, the cell medium was collected and pooled from several dishes, cleared of cellular debris by 0.45 μm filtration, and concentrated 100× by centrifugation at 19,000 g for 90 min in a Beckman Ultracentrifuge using a SW28/SW32 rotor. Pellets were suspended in PBS/0.5% BSA and viral titer was determined by ELISA quantification of viral p24 antigen (Zeptometrix Corp, USA). For shRNA plasmid generation, oligonucleotides were annealed and ligated into lentiviral transfer plasmid pLKO.1-GFP vector at the AgeI/EcoRI sites. The target sequences of shRNAs that target rat and mouse Shank3 (5′-3′) are: […] […] (SEQ ID NO: 2), and […] (SEQ ID NO: 3). The latter was previously reported (Verpelli et al., 2011). A luciferase-targeting sequence was used as an shRNA control: […] (SEQ ID NO: 4). […]

O=c1[nH]c2ccccc2n1C1CCN(Cc2ccc(-c3nc4cc5[nH]cnc5cc4nc3-c3ccccc3)cc2)CC1 [Akti]
BDNF-induced Akt phosphorylation: blocked BDNF-induced Akt phosphorylation in primary neurons
